The source of these data is patent US20250340552A1, “COMPOUNDS, COMPOSITIONS AND METHODS OF TREATING DISORDERS” (HOTSPOT THERAPEUTICS, INC., priority 2022, published 2025).

Amino acid sequences for entries named in this document (tags omitted).
UniProt Q13191, whole entry: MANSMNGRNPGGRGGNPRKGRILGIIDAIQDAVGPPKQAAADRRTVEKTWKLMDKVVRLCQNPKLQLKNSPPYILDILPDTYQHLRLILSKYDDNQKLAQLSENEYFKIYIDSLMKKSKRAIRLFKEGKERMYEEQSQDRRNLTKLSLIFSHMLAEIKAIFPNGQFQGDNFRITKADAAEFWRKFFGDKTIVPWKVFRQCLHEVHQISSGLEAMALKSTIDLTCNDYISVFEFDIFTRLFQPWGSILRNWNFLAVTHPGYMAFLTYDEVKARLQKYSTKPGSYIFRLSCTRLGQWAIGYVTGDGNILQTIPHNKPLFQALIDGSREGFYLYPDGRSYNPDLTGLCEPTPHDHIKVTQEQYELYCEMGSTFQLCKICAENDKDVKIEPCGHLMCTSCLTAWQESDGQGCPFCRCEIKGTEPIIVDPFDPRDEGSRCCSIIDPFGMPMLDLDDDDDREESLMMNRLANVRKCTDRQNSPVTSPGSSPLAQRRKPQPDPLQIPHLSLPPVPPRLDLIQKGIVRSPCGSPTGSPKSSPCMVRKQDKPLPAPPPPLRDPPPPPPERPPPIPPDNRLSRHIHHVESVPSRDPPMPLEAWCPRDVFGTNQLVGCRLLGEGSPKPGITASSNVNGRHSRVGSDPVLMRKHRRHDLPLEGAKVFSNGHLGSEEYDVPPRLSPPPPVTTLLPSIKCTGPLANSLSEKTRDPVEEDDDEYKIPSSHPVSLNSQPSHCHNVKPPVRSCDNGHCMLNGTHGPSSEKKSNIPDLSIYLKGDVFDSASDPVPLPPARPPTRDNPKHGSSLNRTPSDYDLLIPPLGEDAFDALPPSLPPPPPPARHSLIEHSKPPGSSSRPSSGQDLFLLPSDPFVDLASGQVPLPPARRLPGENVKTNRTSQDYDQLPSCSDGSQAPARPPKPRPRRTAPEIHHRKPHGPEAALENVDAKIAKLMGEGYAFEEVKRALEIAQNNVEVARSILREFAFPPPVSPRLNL

The assay deals with T1, Cbl-B (Homo sapiens, UniProt Q13191).
T1 construct: MSD-Based Assay for Degradation of Cbl-B in THP-1 Cells; endogenous in cells; host or cells: THP-1 (title) / Jurkat (protocol text)
The assay can be described thus: MSD-based assay for degradation of Cbl-B in THP-1 cells. It is filed as cell-based. The following applies: Jurkat cells seeded (heading: THP-1 cells), 24 hours incubation, MSD readout. Here is the method:
MSD-Based Assay for Degradation of Cbl-B in THP-1 Cells
Assay plates were then shaken at 600 rpm for 5 minutes, followed by incubation for 24 hours in the 37° C. TC incubator. […] Cell debris was then spun down at maximum speed (about 3200 g) for 30 min and lysates frozen in the −80° C. fridge. Meanwhile, MSD plates (L15XA-3) were coated overnight at 4° C. with 1 ug/mL capture antibody (Anti-Cbl-B antibody, 246C5a and Mouse mAB, ab54362). […] Blocking buffer was 3% Blocker A (MSD, R93BA-4) in TBST. Plates were washed 3× with 150 ul/well of 1×TBST and sample lysates (70 ul/well) then added, followed by shaking for 1 hr at RT, 600 rpm. […] Plates were again washed 3× with 150 ul/well of 1×TBST, followed by addition of Secondary Detection antibody, SULFO-TAG anti-species antibody (Anti Rabbit Antibody (R32AB-5) MSD, R32AB-1) at a final concentration of 1 ug/ml and 25 uL/well, followed by shaking for 1 hr at RT, 600 rpm. Plates were again washed 3× with 150 ul/well of 1×TBST, followed by addition of 1×MSD reading buffer (MSD, R92TC-2), 150 ul/well, diluted from 4× with water.
Compound Dmax were binned into A through D as follows: A indicates >70%, B indicates 50-70%, C indicates 30-50%, D indicates <30%.

The Dmax is the largest share of the target that was removed. High values mean deep degradation, low ones shallow degradation. Take `CN(CCO[C@@H]1CCCN(Cc2cc(C(F)(F)F)c3cn(-c4cccc([C@H](c5nncn5C)C5CCC5)c4)c(=O)n3c2)C1)C(=O)c1ccc(N2CCN(c3ccc4c(c3)CN([C@H]3CCC(=O)NC3=O)C4=O)CC2)cc1` [Compound 104]: the Dmax lay in the range of 50 to 70%.
The same measure for `CN(CCO[C@H]1CCCN(Cc2cc(C(F)(F)F)c3cn(-c4cccc([C@H](c5nncn5C)C5CCC5)c4)c(=O)n3c2)C1)C(=O)c1ccc(N2CCN(c3ccc4c(c3)CN([C@H]3CCC(=O)NC3=O)C4=O)CC2)cc1` [Compound 106]: 50 to 70%.
